Sfp PPTase inh: qHTS Assay for Inhibitors of Bacillus subtilis Sfp phosphopantetheinyl transferase (PPTase). Potency, µM, inactives show max response, negative = inhibition, most hits filed as inhibitors. Biochemical Sfp PPTase activity, qHTS. AID 1490, 2009. 4'-phosphopantetheinyl transferase ffp (Bacillus subtilis), Q9F4F7. hit rate 3.5% among 310,000; active = well fitted inhibition curve with a large enough effect; inconclusive = small, poorly fitted or top-dose-only effect, or another doubt; inactive = no such curve, though single readings can be large or run the other way;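 also: the enzyme is Sfp with the accession as filed and its product quenches rhodamine fluorescence; potency is read from the fitted curve at half-maximal effect; 0% = enzyme reaction without inhibitor and -100% = no enzyme wells; top concentration of the series not given in the record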
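Step 1, compound plus 15 nM Sfp-PPTase, 15 min, room temperature. Step 2, add rhodamine-CoA (5 uM) and BHQ-2-YbbR (12.5 uM). Step 3, read 525/598 nm fluorescence at 0 and 30 min.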
ALDH1A1 block: inhibitors of human aldehyde dehydrogenase 1A1; Potency, µM (top dose mostly 75.3 µM), without a hit: at the top dose activity, negative = inhibition, hits mostly inhibitors; AID 1030; hit rate 7.3% among 220,000; P00352; Purified ALDH1A1, NADH fluorescence, propionaldehyde substrate; active means well fitted inhibition curve with a large enough effect, not every such curve was filed as active; inconclusive means small, poorly fitted or top-dose-only effect, or another doubt; inactive means no such curve, though single readings can be large or run the other way;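 further: potency means the concentration at half of the fitted maximal effect; plate controls were no enzyme wells and a reference inhibitor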
G9a block: inhibitors of human histone lysine methyltransferase G9a. hit rate 8.8% among 350,000. Q96KQ7. Potency, µM (doses to about 102 µM), inactives show at the top dose activity, negative = inhibition, most hits filed as inhibitors. G9a H3K9 monomethylation, AlphaScreen, 2 h; further: potency means the concentration at half of the fitted maximal effect; on the % scale 0 is the no-effect control and ±100 the full control effect; nearly all actives have a fitted effect of over 75% in size
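AlphaScreen read-out: biotin-H3K9 peptide (500 nM) methylation by 20 nM enzyme with 20 uM SAM, 2 h at room temperature after 15 min compound preincubation; anti-monomethyl H3K9 antibody plus donor/acceptor beads, 10 min dark.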
miR-21 reporter: miR-21 reporter, rising signal; HeLa miR-21 FLuc reporter, luciferase, 48 h; Potency, µM (top dose mostly 38.3 µM), without a hit: at the top dose reporter change, positive = more light; 340,000 tested, under 10 active; active = well fitted rising curve with a large enough effect; inconclusive = small, poorly fitted or top-dose-only effect; inactive = no such curve, though single readings can be large or run the other way;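 note: % of control where 0% means no effect; miR-21 action dims this reporter so a rising signal means less miR-21 action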
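HeLa cells stably expressing CMV-driven firefly luciferase with a downstream miR-21 binding sequence, endogenously expressing miR-21, were treated with titrations (up to about 40uM final) for 48 hours at 37 degree Celsius. Luciferase luminescence was read after lysis.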
JMJD2E inh: blocks human JMJD2E demethylase activity; B2RXH2; JMJD2E catalytic domain, FDH-coupled NADH fluorescence (FDH is formaldehyde dehydrogenase); Potency, µM (series often up to 57.1 µM), for inactives: at the highest dose activity change, negative = inhibition, hits mostly inhibitors; hit rate 1.6% among 230,000; AID 2147; active means well fitted inhibition curve with a large enough effect, not every such curve was filed as active; inconclusive means small, poorly fitted or top-dose-only effect, or another doubt; inactive means no such curve, though single readings can be large or run the other way;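 further: potency means the concentration at half of the fitted maximal effect; 0% = wells with enzyme and -100% = buffer wells without enzyme; nearly all actives have a fitted effect of over 50% in size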
Lamin A splicing: modulators of lamin A splicing. HeLa LMNA splicing GFP/RFP minigene ratio, 48 h. Potency, µM (series often up to 46.1 µM), inactives show at the highest dose ratio change, negative = inhibition, usual class: inhibitors. hit rate 0.01% among 200,000. AID 1487; active means well fitted inhibition curve with a large enough effect in the signal ratio, with a control signal flat, not every such curve was filed as active; inconclusive means small, poorly fitted or top-dose-only effect, or effect the other way, or a change in a side signal; the % refers to the signal ratio; further: potency means the concentration at half of the fitted maximal effect; on the % scale 0 is the no-effect control and ±100 the full control effect
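Read-out is the ratio of GFP to DsRed2 object intensity, acquired by 488 nm laser-scanning cytometry on HeLa lamin A-EGFP minigene reporter cells. Compound incubation 48 hrs at 37 °C in Opti-MEM with 2% FBS; DMSO 0.5% final.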
* hit, by the source's call; ? = inconclusive; nt = no result given; [ ] = remark or other dose. A selection: hits, their analogues and other compounds. The true share with any hit is near 13%. Unless noted, the call rests on the fitted dose curve; in most records, active means well fitted curve in the direction sought with a large enough effect; inconclusive means small, poorly fitted or top-dose-only effect, or another doubt; inactive means no such curve, though single readings can be large; an effect the other way counts as inactive or inconclusive.

| Structure | Sfp PPTase inh | ALDH1A1 block | G9a block | miR-21 reporter | JMJD2E inh | Lamin A splicing |
| --- | --- | --- | --- | --- | --- | --- |
| COc1ccc2c(c1)CC(C(=O)Nc1ccc(Br)c(C)c1)CO2 (stereo not drawn) | nt | nt | 6%[59 µM] | -1% | nt | 13%[46 µM] |
| CN1CCN(c2nc3ccccc3nc2C(C#N)C(=O)OC2CCCCC2)CC1 (stereo not drawn) | 0% | 16µM* | ? | -3% | -12% | -9% |
| CCN1CCN(c2nc3ccccc3nc2C(C#N)C(=O)OC2CCCCC2)CC1 (stereo not drawn) | -6% | ? | -6%[12.7 µM] | -3% | -9% | 9% |
| CCOC(=O)c1sc(N(Cc2ccccc2)C(=O)CCl)nc1C | -31% | nt | 40µM* | -29% | nt | nt |
| CCOC(=O)c1sc(N(Cc2ccccc2)C(=O)CSc2ncn[nH]2)nc1C | 17% | 4.5µM* | 27%[12.7 µM] | -30% | ? | 3% |
| CCOC(=O)c1sc(N(Cc2ccccc2)C(=O)COC(=O)c2ccc(O)cc2)nc1C | -4% | 14µM* | ? | 30% | -26% | ? |
| COc1ccc(-n2nc3ccc(NC(=O)c4ccc(C#N)cc4F)cc3n2)cc1Cl | nt | nt | 0%[59 µM] | -6% | nt | nt |
| COc1ccc(NC(=O)CN2C(=O)C(c3ccc(C)cc3)=NC23CCCCCC3)cc1Cl | nt | nt | 6%[59 µM] | 21% | nt | nt |
| COc1ccc(-c2csc(CCN3N=C(C)CC3=O)n2)cc1 | 3% | 2µM* | 32µM* | 14% | ? | nt |
| COc1ccc(S(=O)(=O)N(CC(=O)N2CCN(c3ccccc3OC)CC2)c2ccccc2)cc1 | -4% | 7.1µM* | ? | 23% | 7% | ? |
| COc1cccc(N(CC(=O)N2CCN(c3ccccc3OC)CC2)S(C)(=O)=O)c1 | 15% | 3% | 79µM* | 1% | 5% | -5% |
| COc1ccc(N2CCN(C(=O)CN(c3ccc(OC)cc3)S(=O)(=O)c3ccccc3)CC2)cc1 | 7% | nt | 40µM* | -2% | nt | nt |
| COc1ccc(N(CC(=O)N2CCN(C)CC2)S(=O)(=O)c2ccccc2)cc1 | 12% | nt | 11% | -1% | nt | nt |
| CS(=O)(=O)N(CC(=O)N1CCN(c2ccccc2)CC1)c1cccc(Br)c1 | 3% | 1% | 89µM* | 3% | 3% | 3% |
| COc1cc(C(=O)Nc2cc(C)c(O)c(-c3nc4ccccc4s3)c2)cc(OC)c1OC | nt | nt | -1%[59 µM] | -4% | nt | nt |
| COc1ccc(N2CCN(C(=O)CN(c3ccccc3)S(=O)(=O)c3ccc(OC)cc3)CC2)cc1 | -6% | -11% | 10µM* | 2% | 2% | 9% |
| COc1ccc(S(=O)(=O)N(C)CC(=O)N2CCN(c3ccccc3)CC2)cc1 | 20% | nt | -2% | 2% | nt | nt |
| Cc1nc(S(=O)(=O)NC2CCCCC2)c(C#N)c(C)c1Cl | 7% | -4% | 79µM* | 4% | 9% | 3% |
| CCN(CC)S(=O)(=O)c1ccc(N2CCc3ccccc3C2)nc1 | -9% | nt | 40µM* | 27% | nt | nt |
| CCN(CC)S(=O)(=O)c1ccc(C(=O)N2CCc3ccccc32)cc1 | 15% | 5µM* | 13% | 1% | 5% | nt |
| Cc1[nH]c2ccccc2c1/C=N/Nc1ccccc1[N+](=O)[O-] | -7% | -10% | 7.9µM* | -44% | -9% | nt |
| Cc1[nH]c2ccccc2c1/C=N/NC(=S)NC(C)C | ? | -1% | ? | -21% | -14% | ? |
| Cc1[nH]c2ccccc2c1/C=N/NS(=O)(=O)c1ccccc1 | -7% | -2% | 50µM* | 4% | 9% | nt |
| Cc1[nH]c2ccccc2c1/C=N/NC(=O)CCC(=O)NCc1ccccc1 | 2% | 4% | -6% | 3% | 0% | 7%[46 µM] |

Five entries already listed, arranged by their value in ALDH1A1 block, falling.
| Structure | Sfp PPTase inh | ALDH1A1 block | G9a block | miR-21 reporter | JMJD2E inh | Lamin A splicing |
| --- | --- | --- | --- | --- | --- | --- |
| Cc1[nH]c2ccccc2c1/C=N/NC(=O)CCC(=O)NCc1ccccc1 | 2% | 4% | -6% | 3% | 0% | 7%[46 µM] |
| Cc1[nH]c2ccccc2c1/C=N/NC(=S)NC(C)C | ? | -1% | ? | -21% | -14% | ? |
| Cc1[nH]c2ccccc2c1/C=N/NS(=O)(=O)c1ccccc1 | -7% | -2% | 50µM* | 4% | 9% | nt |
| Cc1nc(S(=O)(=O)NC2CCCCC2)c(C#N)c(C)c1Cl | 7% | -4% | 79µM* | 4% | 9% | 3% |
| Cc1[nH]c2ccccc2c1/C=N/Nc1ccccc1[N+](=O)[O-] | -7% | -10% | 7.9µM* | -44% | -9% | nt |

Following part:
| Structure | Sfp PPTase inh | ALDH1A1 block | G9a block | miR-21 reporter | JMJD2E inh | Lamin A splicing |
| --- | --- | --- | --- | --- | --- | --- |
| CCOC(=O)c1c(NC(=O)CN2C(=O)C(=O)N(C(C)C)C2=O)sc(C)c1CC | nt | nt | 12%[2.33 µM] | nt | nt | nt |
| CN(C(=O)C1CCCO1)c1nnc(-c2cnccn2)s1 (stereo not drawn) | 17% | -6% | -7% | -9% | ? | 3% |
| Cc1ccc(-c2nnc(N(C)C(=O)C3CCCO3)s2)cn1 (stereo not drawn) | -11% | 0% | 45µM* | -26% | -11% | -6% |
| CN(C)CCCNc1oc(/C=C/c2ccc(F)cc2)nc1C#N | nt | nt | -28%[59 µM] | -19% | nt | nt |
| Cc1ccc(S(=O)(=O)NNC(=O)c2cnn(-c3ccc(Cl)cc3)c2C(F)(F)F)cc1 | 5% | nt | 56µM* | 13% | -2% | nt |
| CCOc1cc(C(=O)Nc2cc3c(cc2N2CCCC2)n(C)c(=O)c(=O)n3C)cc(OCC)c1OCC | nt | nt | 10µM* | 3% | nt | nt |
| Cn1c(=O)c(=O)n(C)c2cc(N3CCCC3)c(NC(=O)c3ccc(C(C)(C)C)cc3)cc21 | nt | nt | 11µM* | -1% | nt | nt |
| CCOc1cc(C(=O)Nc2cc3c(cc2N2CCCC2)n(C)c(=O)n3C)cc(OCC)c1OCC | -12% | nt | nt | 0% | nt | nt |
| COc1ccccc1C(=O)NNC(=S)NC(=O)c1cc(OC)c(OC)c(OC)c1 | 21% | 4% | 13µM* | -5% | ? | -22%[46 µM] |
| COc1cc(C(=O)NNC(=S)NC(=O)c2ccc3c(c2)OCO3)cc(OC)c1OC | -1% | nt | 13µM* | 16% | ? | nt |
| O=C(COc1cccc2ccccc12)NNC(=O)c1cnccn1 | 8% | 7% | -13% | 1% | ? | -2% |
| O=C(NC(=S)NNC(=O)c1cnccn1)c1ccc(Cl)cc1 | -1% | nt | 50µM* | -10% | ? | nt |
| O=C(COc1ccc2ccccc2c1)NNC(=O)c1cnccn1 | 10% | 7% | 0.63µM* | -1% | -13% | -15% |
| COc1cc(CNC(=O)c2ccc3oc(C(C)C)nc3c2)cc(OC)c1 | 0% | nt | 15% | 1% | nt | nt |
| O=C(COc1ccccc1F)Nc1ccccc1OCc1cc(=O)n2ccccc2n1 | nt | nt | 7%[59 µM] | 2% | nt | ? |
| CC(Oc1ccc(F)cc1)C(=O)Nc1ccccc1N1CCCCC1 (stereo not drawn) | -2% | nt | 161% | 5% | nt | nt |
| COc1ccc(OC)c(NC(=O)c2cc3c(=O)n4cccc(C)c4nc3n2C)c1 | nt | nt | 4%[59 µM] | 2% | nt | -3%[46 µM] |

Compound activity as filed in PubChem.
